Reference: paper PMC8597046, “Use of Mixture Dosing and Nonlinear Mixed Effect Modeling of Eight Environmental Contaminants in Rabbits to Improve Extrapolation Value of Toxicokinetic Data” (Environmental Health Perspectives, 2021)

Assay: Nonlinear mixed effect (NLME) compartmental modeling of merged IV and oral serum concentrations
Settings: mean
Source text: A nonlinear mixed effect (NLME) modeling approach was used to analyze simultaneously all data obtained from the different rabbits after both IV and oral administrations and to provide robust estimates of the typical TK parameters.
The primary parameters of the model, namely the volume of distribution of the central compartment (V1), the first-order rate constants ( K10 , K12 , K21 , and Kabs plus K13 , K31 for PFOA) and the bioavailability (F) and their associated precisions [standard error (SE)] were estimated by minimizing an objective function value (OFV) expressed as minus twice the log of the likelihood estimation ( −2LL ). […] Marginal likelihood was approximated by using the Laplacian engine by default and, when this engine was unable to determine the SE of the estimate, the Quasi-Random Parametric Expectation Maximization (QRPEM) was selected.
Between subject variability (BSV) of the parameters was measured using the exponential model θparameter_i=θtv_parameter×exp (ηi), where θparameter_i is the parameter estimated for the ith individual, θtv_parameter is the typical population value of the parameter, and ηi is the deviation associated with the ith individual from the corresponding value of the parameter at the population level.
The distribution of ηi was assumed to be normal with a mean of 0 and a variance ω² . BSV was reported as a coefficient of variation (CV) in the original scale CV(%)=100× exp (ω^2)−1 .
The residual variance was modeled using a combined additive and proportional error model Cobsij=Cpredij(1 + ε1ij) + ε2ij, where Cobsij and Cpredij are respectively the jth observed and predicted concentrations for the ith individual, and ε1ij and ε2ij are the multiplicative and additive residual errors.
Secondary parameters were calculated from the population primary parameters.
The clearance values (CL) were estimated using Equation 5: (5) CL=K10×V1, where V1 is the volume of the central compartment and K10 is the elimination rate constant from the central compartment.
The volume of the peripheral compartment (V2) was estimated with Equation 6: (6) V2=V1×(K12/K21), where K12 and K21 are the distribution rate constants between the central and the peripheral compartments.
The clearance of distribution (Q) was estimated using Equation 7: (7) Q=K12×V1, with […] and K12 as defined above.
The volume of distribution associated with the terminal phase was estimated with Equation 10: (10) VZ=CL/λZ, with λZ as defined above.
The AUC was computed as a secondary parameter using Equation 11: (11) AUC=Dose/CL.
The terminal half-life was estimated with Equation 1, as previously described.

[1] = population primary parameter, typical value

Row | SMILES | tvK21 (distribution rate constant) [1] | tvKabs (rate constant of absorption) (population primary parameter, typical value, MEHP after oral DEHP) | tvK12 (distribution rate constant) [1] | Volume(s) of the peripheral compartment (population secondary parameter, for PFOA first peripheral compartment)
1 | CCCCC(CC)COC(=O)c1ccccc1C(=O)O (centres unmarked) [MEHP, mono(2-ethylhexyl)phthalate] | 0.027 h⁻¹ | 0.111 h⁻¹ | – | –
2 | O=S(=O)(c1ccc(O)cc1)c1ccc(O)cc1 [BPS, bisphenol S] | 0.122 h⁻¹ | – | 1.342 h⁻¹ | 18 L/kg
